This is an account of results in PMC8606745 (Frontiers in Microbiology, 2021).

The test system of the data set is tobacco leaves. Description: Effect of peptide infiltration on tobacco leaves. The settings on record: 100 μl infiltrated into mesophyll of tobacco leaves, 48 h, three inoculations, ± confidence interval (α=0.05).

Take `CC[C@H](C)[C@H](NC(=O)CN)C(=O)NCC(=O)N[C@@H](CCCCN)C(=O)N[C@@H](Cc1ccccc1)C(=O)N[C@@H](CC(C)C)C(=O)N[C@@H](Cc1c[nH]cn1)C(=O)N[C@@H](CO)C(=O)N[C@@H](C)C(=O)N[C@@H](CCCCN)C(N)=O` [Magainin 2(1-10)]: the “Leaf infiltration effect (lesion diameter)” value (“Leaf infiltration effect” below) runs as follows: (50 µM) 0 ± 0 mm; (100 µM) 0.00 ± 0.00 mm; (150 µM) 0.00 ± 0.00 mm.
`CC[C@H](C)[C@H](N)C(=O)N[C@@H](CC(C)C)C(=O)N1CCC[C@H]1C(=O)N[C@H](Cc1ccccc1)C(=O)N[C@@H](CCCCN)C(=O)N[C@H](Cc1ccccc1)C(=O)N1CCC[C@H]1C(=O)N[C@H](Cc1ccccc1)C(=O)N[C@H](Cc1ccccc1)C(=O)N1CCC[C@H]1C(=O)N[C@H](Cc1ccccc1)C(=O)N[C@@H](CCCNC(=N)N)C(=O)N[C@@H](CCCNC(=N)N)C(N)=O` [BP525]: the “Leaf infiltration effect” value runs as follows: (50 µM) 4 ± 1.96 mm; (100 µM) 5.33 ± 0.65 mm; (150 µM) 8.67 ± 0.65 mm.
As for `CC[C@H](C)[C@H](NC(=O)[C@H](CCCNC(=N)N)NC(=O)[C@@H](NC(=O)[C@H](Cc1c[nH]c2ccccc12)NC(=O)[C@@H](NC(=O)[C@@H](NC(=O)[C@@H](N)CCCNC(=N)N)[C@@H](C)CC)C(C)C)C(C)C)C(=O)N[C@@H](CCCNC(=N)N)C(=O)N[C@@H](CCCNC(=N)N)C(=O)N[C@@H](Cc1c[nH]c2ccccc12)C(=O)N[C@@H](Cc1ccccc1)C(=O)N[C@H](C(N)=O)C(C)C` [RJK2], the “Leaf infiltration effect” value (50 µM) is on record as 5.67 ± 0.65 mm.
With `CC[C@H](C)[C@H](NC(=O)[C@H](CCCNC(=N)N)NC(=O)[C@H](Cc1ccccc1)NC(=O)[C@H](CCCNC(=N)N)NC(=O)[C@@H](N)CCCCN)C(=O)N[C@@H](CCCNC(=N)N)C(=O)N[C@H](C(=O)N[C@@H](CCCNC(=N)N)C(=O)N[C@H](C(N)=O)C(C)C)C(C)C` [Peptide 1037], the “Leaf infiltration effect” value is, setting by setting: (50 µM) 4.33 ± 1.31 mm; (100 µM) 6.33 ± 1.73 mm; (150 µM) 9.67 ± 1.31 mm.
`CC[C@H](C)[C@H](NC(=O)[C@H](CCCNC(=N)N)NC(=O)[C@H](CCCNC(=N)N)NC(=O)[C@H](CC(C)C)NC(=O)[C@@H](N)Cc1c[nH]c2ccccc12)C(=O)N[C@@H](CCCCN)C(=O)N[C@@H](C)C(=O)N[C@@H](Cc1c[nH]c2ccccc12)C(=O)N[C@@H](CC(C)C)C(=O)N[C@@H](CCCNC(=N)N)C(=O)N[C@@H](CCCNC(=N)N)C(=O)N[C@@H](CCCCN)C(=O)N[C@@H](CCCNC(=N)N)C(=O)N[C@@H](CCCCN)C(N)=O` [RR3-NH2]: the “Leaf infiltration effect” value by setting is: (50 µM) 3 ± 1.13 mm; (100 µM) 5.33 ± 1.73 mm; (150 µM) 8.67 ± 1.31 mm.
For `CC[C@H](C)[C@H](NC(=O)[C@H](CCCNC(=N)N)NC(=O)[C@H](CCCNC(=N)N)NC(=O)[C@H](CC(C)C)NC(=O)[C@H](Cc1c[nH]c2ccccc12)NC(=O)[C@H](C)NC(=O)[C@H](CCCCN)NC(=O)[C@@H](NC(=O)[C@H](CCCNC(=N)N)NC(=O)[C@H](CCCNC(=N)N)NC(=O)[C@H](CC(C)C)NC(=O)[C@@H](N)Cc1c[nH]c2ccccc12)[C@@H](C)CC)C(=O)N[C@@H](CCCCN)C(=O)N[C@@H](C)C(N)=O` [RR4-NH2], the “Leaf infiltration effect” value runs as follows: (50 µM) 4.33 ± 0.65 mm; (100 µM) 6.67 ± 0.65 mm; (150 µM) 9.00 ± 1.13 mm.
For the compound `CC[C@H](C)[C@H](NC(=O)[C@H](CCCNC(=N)N)NC(=O)[C@H](Cc1ccccc1)NC(=O)[C@H](CCC(N)=O)NC(=O)[C@@H](N)CCCCN)C(=O)N[C@@H](CCCNC(=N)N)C(=O)N[C@H](C(=O)N[C@@H](CCCNC(=N)N)C(=O)N[C@H](C(N)=O)C(C)C)C(C)C` [Peptide 1029], the “Leaf infiltration effect” value is 0.33 ± 0.65 mm (50 µM), 5.00 ± 0.00 mm (100 µM) and 8.00 ± 1.13 mm (150 µM).
As to `CC[C@H](C)[C@H](NC(=O)[C@H](C)NC(=O)[C@H](CCCNC(=N)N)NC(=O)[C@@H]1CCCN1C(=O)[C@@H](NC(=O)[C@H](CC(C)C)NC(=O)[C@H](CO)NC(=O)[C@H](Cc1ccccc1)NC(=O)[C@H](CC(C)C)NC(=O)[C@@H](N)Cc1ccccc1)[C@@H](C)CC)C(=O)NCC(=O)NCC(=O)N[C@@H](CC(C)C)C(=O)N[C@H](C(=O)N[C@@H](CO)C(=O)N[C@@H](C)C(=O)N[C@@H](Cc1ccccc1)C(=O)N[C@@H](CCCCN)C(N)=O)[C@@H](C)CC` [AamAP-R], the “Leaf infiltration effect” value (50 µM) turned out to be 5.33 ± 0.65 mm, the “Leaf infiltration effect” value (100 µM) was determined as 10.67 ± 2.36 mm and the “Leaf infiltration effect” value (150 µM) came to 13.67 ± 3.64 mm.
Take `CC[C@H](C)[C@H](NC(=O)[C@H](CCCNC(=N)N)NC(=O)[C@H](Cc1ccccc1)NC(=O)[C@H](CCC(N)=O)NC(=O)[C@@H](N)C(C)C)C(=O)N[C@@H](CCCNC(=N)N)C(=O)N[C@H](C(=O)N[C@@H](CCCNC(=N)N)C(=O)N[C@H](C(=O)N[C@H](C(=O)N[C@H](C(=O)N[C@@H](CCCNC(=N)N)C(=O)N[C@@H](CCCCN)C(N)=O)[C@@H](C)CC)C(C)C)[C@@H](C)CC)C(C)C` [Peptide 1036]: the “Leaf infiltration effect” value came out at 6 ± 1.13 mm (50 µM), 7.00 ± 1.13 mm (100 µM) and 11.67 ± 0.65 mm (150 µM).
Consider `CC[C@H](C)[C@H](NC(=O)[C@H](C)NC(=O)[C@H](CCCCN)NC(=O)[C@@H]1CCCN1C(=O)[C@@H](NC(=O)[C@H](CC(C)C)NC(=O)[C@H](CO)NC(=O)[C@H](Cc1ccccc1)NC(=O)[C@H](CC(C)C)NC(=O)[C@@H](N)Cc1ccccc1)[C@@H](C)CC)C(=O)NCC(=O)NCC(=O)N[C@@H](CC(C)C)C(=O)N[C@H](C(=O)N[C@@H](CO)C(=O)N[C@@H](C)C(=O)N[C@@H](Cc1ccccc1)C(=O)N[C@@H](CCCCN)C(N)=O)[C@@H](C)CC` [AamAP-S1], for which the “Leaf infiltration effect” value (50 µM) was found to be 5.33 ± 0.65 mm, the “Leaf infiltration effect” value (100 µM) is 11.00 ± 2.99 mm and the “Leaf infiltration effect” value (150 µM) came to 17.67 ± 0.65 mm.
Taken in the same sequence, the figures for `CC[C@H](C)[C@H](NC(=O)[C@H](CCCNC(=N)N)NC(=O)[C@H](Cc1c[nH]c2ccccc12)NC(=O)[C@H](CCC(N)=O)NC(=O)[C@@H](N)C(C)C)C(=O)N[C@@H](CCCNC(=N)N)C(=O)N[C@H](C(=O)N[C@@H](CCCNC(=N)N)C(=O)N[C@H](C(=O)N[C@H](C(=O)N[C@@H](CCCCN)C(=O)N[C@@H](CCCCN)C(N)=O)[C@@H](C)CC)C(C)C)C(C)C` [Peptide 1026] were 4 ± 1.73 mm, 6.33 ± 1.31 mm and 7.67 ± 0.65 mm.
For `CC[C@H](C)[C@H](NC(=O)[C@H](Cc1c[nH]c2ccccc12)NC(=O)[C@H](CCCCN)NC(=O)[C@H](CCCCN)NC(=O)[C@@H](NC(=O)[C@H](CCCNC(=N)N)NC(=O)[C@H](CCCNC(=N)N)NC(=O)[C@@H](NC(=O)[C@@H](N)Cc1c[nH]c2ccccc12)[C@@H](C)CC)[C@@H](C)CC)C(=O)N[C@@H](CCCNC(=N)N)C(=O)N[C@@H](CCCNC(=N)N)C(=O)N[C@H](C(=O)N[C@@H](Cc1c[nH]cn1)C(=O)N[C@@H](CCCCN)C(N)=O)C(C)C` [RR2-NH2], the “Leaf infiltration effect” value is, setting by setting: (50 µM) 3.33 ± 0.65 mm; (100 µM) 4.67 ± 0.65 mm; (150 µM) 9.33 ± 1.73 mm.
In the same order, the values of `CC[C@@H](C)[C@@H](NC(=O)[C@H](N)CCCNC(=N)N)C(=O)N[C@@H](C(=O)N[C@H](Cc1c[nH]c2ccccc12)C(=O)N[C@@H](C(=O)N[C@H](CCCNC(=N)N)C(=O)N[C@@H](C(=O)N[C@H](CCCNC(=N)N)C(=O)N[C@H](CCCNC(=N)N)C(=O)N[C@H](Cc1c[nH]c2ccccc12)C(=O)N[C@H](Cc1ccccc1)C(=O)N[C@@H](C(N)=O)C(C)C)[C@H](C)CC)C(C)C)C(C)C` [RIJK2] are 2.33 ± 0.65 mm, 5.67 ± 0.65 mm and 8.67 ± 1.31 mm.
